Results as given in US10183009B2, “Therapeutic compounds and uses thereof” (GENENTECH, INC., priority 2014, dated 2019).

Molecular target: BRD4(BD1) (Homo sapiens (Human), UniProt O60885)
Test: BRD4 AlphaLisa Binding Assay

IC50 [nM] | Structure (SMILES)
3000 | C/C=C/Cn1cc(-c2cc(F)cc(C(N)=O)c2)c2cc[nH]c2c1=O [Example 22, 3-[6-[(E)-but-2-enyl]-7-oxo-1H-pyrrolo[2,3-c]pyridin-4-yl]-5-fluoro-benzamide]
720 | C/C=C/Cn1cc(-c2cccc(C(=O)NC(C)C)c2)c2cc[nH]c2c1=O [Example 35, 3-[6-[(E)-but-2-enyl]-7-oxo-1H-pyrrolo[2,3-c]pyridin-4-yl]-N-isopropyl-benzamide]
